Results: PubChem BioAssay AID504634 (The Scripps Research Institute Molecular Screening Center, 2011)
The entries are a selection whose mix differs from that of the whole data set. Calls of active or inactive are those of the source. Rule as the data show it: active = inhibition mostly above about 23% (no sharp cut-off); inactive = mostly below about 18%.

Amino acid sequences for entries named in this document (tags omitted).
UniProt P47898, whole entry: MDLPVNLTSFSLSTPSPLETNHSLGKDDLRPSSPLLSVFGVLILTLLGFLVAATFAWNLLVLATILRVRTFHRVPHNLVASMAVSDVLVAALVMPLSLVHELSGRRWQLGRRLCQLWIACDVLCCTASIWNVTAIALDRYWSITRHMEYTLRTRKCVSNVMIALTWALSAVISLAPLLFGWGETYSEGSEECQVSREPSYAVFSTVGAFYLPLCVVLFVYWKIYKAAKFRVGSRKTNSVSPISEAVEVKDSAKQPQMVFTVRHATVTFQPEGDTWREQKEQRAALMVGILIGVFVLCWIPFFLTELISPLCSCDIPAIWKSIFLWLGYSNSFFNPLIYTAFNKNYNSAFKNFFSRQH

The compounds below were run against 5-hydroxytryptamine receptor 5A (Homo sapiens) (UniProt P47898) (assay: HTR5A inverse agonists in luminescence cell assay, primary screen, counter-screen for OPRM1-OPRD1 heterodimer inverse agonist project, full-deck HTS (AID 504634;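 also: 0% = cells with DMSO and 100% = no-cell wells with DMSO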)). Settings: HTR5A cell line, inverse agonism, at 9.3 µM, stronger effect = higher value.

SMILES	inhibition
Cc1ccc(-c2csc(NC(=O)Cn3cnc4c3c(=O)n(C)c(=O)n4C)n2)cc1C	inactive: -1.74%
COc1ccccc1OP(C)(=O)Nc1ccc(C)cc1 (configuration not stated)	inactive: 4.83%
